# scFv variants of Ab-14 (light chain) against a SARS-CoV-2 spike peptide

Binding partner: SARS-CoV-2 spike HR2 peptide, sequence PDVDLGDISGINAS.

Parent: Ab-14, a human scFv built as VH, three GGGGS repeats, VL. Only the CDRs of the light chain vary.
VH: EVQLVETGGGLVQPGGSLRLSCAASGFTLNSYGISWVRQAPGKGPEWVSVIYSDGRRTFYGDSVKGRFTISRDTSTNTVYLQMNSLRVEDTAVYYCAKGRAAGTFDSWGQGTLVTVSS
VL: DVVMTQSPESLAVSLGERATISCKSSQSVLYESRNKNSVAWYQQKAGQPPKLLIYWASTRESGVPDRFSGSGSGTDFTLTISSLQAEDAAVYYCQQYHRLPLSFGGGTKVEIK

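Phage display of a naive human antibody library on the peptide gave the parent. These sequences belong to a second round, designed from the earlier measurements on random variants of the parent. Group labels follow the data file (En: ensemble of fine-tuned language models; GP: Gaussian process model; HC: hill climbing; Gen: genetic algorithm; Gibbs: Gibbs sampling; a sequence that several methods proposed may carry one label only). AlphaSeq pools MATa yeast showing the antibodies with MATalpha yeast showing the peptide. Pairs that bind mate more often; barcode pairs of the diploids are counted by sequencing. The ratio of observed to expected reads was calibrated, replicate by replicate, on BCL2-family standards whose Kd was known from biolayer interferometry. Each pool was mated in six replicate cultures.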

Variants are written as CDR1, CDR2 and CDR3 of the light chain (limits as in the source). Parent: KSSQSVLYESRNKNSVA, WASTRES, QQYHRLPLS. This list holds designs with more than six substitutions. Affinities are written as log10 Kd with Kd in nM; a lower number is a better binder. "nd" marks a missing value. The strain was present, yet no cells mated with the target were sequenced in that replicate, which points to weak or no binding. Of ten entries with the parent sequence, four were seen in most replicates (averages 0.34 to 2.37), three in one and three in none, so single entries are noisy. The authors averaged sequences with at least three values out of six and counted those with two or fewer as poor binders. Three control strains display no target. For all light chain designs, 4% of the pairings with them gave a signal, with a median of 2.64 and one signal in twenty below 1.59, so weak values seen in few replicates may be background. Values of this round are not directly comparable with the first-round values of the same sequences.

HITYGMMVMGRHSKSIA, QAEERAK, QQYDRLPLV [En_Gen]: 0.97, 1.16, 0.62, 1.11, 0.94, 1.29.
KLSGLMASSKFAKNNVA, ENNTRED, QQYERLPLS [En_Gen]: nd, nd, 1.02, nd, nd, 2.77.
KLSMSMLMESFHKNNVA, ENSTREE, QHYHRLPLS [En_HC]: nd, nd, nd, nd, 3.64, nd.
KLMTSDLYESRMKNAVA, DASTRME, QQYHRLPLS [GP_Gibbs]: -0.21, -0.26, -0.39, -0.42, -0.39, -0.22.
KISGMYQKESKNKNSIA, EMVNRES, QQYDRLPLS [En_HC]: 0.81, 0.37, 0.64, 0.20, 0.49, 0.47.
TIGAQLMYGTRNRSNVA, EVSQRLN, QQYDRLPLL [En_Gen]: 1.63, 2.28, 1.63, 1.46, 1.01, 1.50.
KLTNVTGSEKVKGNNVA, EMETRER, QQYNRLPLS [En_Gen]: 1.18, 0.89, 0.89, 0.99, 0.55, 0.81.
MMSSLMGYESRNIQNVA, QTSTREQ, QQYDRLPLI [En_Gen]: 0.12, -0.03, -0.12, 0.21, 0.16, 0.22.
QLPNARPDGYLQKNNVA, EGTERSD, QQYMRLPLF [En_Gibbs]: 0.06, 0.04, -0.04, -0.08, -0.12, 0.18.
KLLQSVLLWSRNWNSVA, NASTREL, QQYHRLPLS [GP_Gibbs]: 0.85, 0.14, 0.30, 0.64, 0.35, 0.52.
KITSHEWEGTADNSAMA, NADVSHD, QQYSRLPLF [En_Gibbs]: 0.76, 0.60, 0.50, 0.76, 0.72, 0.47.
MVNGIMDHLSKQTNNVA, ETVTREE, QQYDRLPLT [En_Gen]: 0.54, 0.23, 0.56, 0.44, 0.45, 0.78.
MLSQMWAIGMKAKNSVA, QASMRFN, QQYDRLPLI [En_Gen]: nd, 1.00, 2.69, 3.19, nd, 2.09.
KLYFNVGTMAHNKDSIA, DMERRED, QQYHRLPLS [En_HC]: 0.26, 0.14, -0.03, 0.05, 0.08, 0.38.
KLQQVTGYELYVRNSVA, QMSTRAE, QDYNRLPLS [En_HC]: 0.49, 0.61, 0.32, 0.54, 0.39, 0.85.
ILSQSVLMGMHTGNSVA, QATMRFN, QQYHRLPLM [En_HC]: 1.27, 1.51, 1.17, 1.45, 1.49, 2.60.
KLGMTLNQLMHKKNNVA, DLVERAN, QQYFRLPLS [En_Gen]: -0.04, 0.31, -0.28, 0.09, -0.10, -0.12.
NFGQKMALYTGQRYSIA, DSTVRAD, QQYSRLPLT [En_Gibbs]: 0.17, 0.06, 0.15, 0.02, 0.47, 0.58.
MISQLYNMGTFAINSVA, QASIRNS, QQYDRLPLL [En_Gen]: 1.37, 1.25, 1.89, 1.45, 1.45, 1.69.
MINMEVGIEDMKWQAVA, SAHVRAF, QQYGRLPFS [En_Gibbs]: nd, 1.31, 0.58, 0.75, 1.30, 1.51.
KQSQSVMGEERNKNSVA, AASDREV, QQYHRLPLS [GP_Gibbs]: 0.39, 0.19, 0.34, 0.12, 0.11, 0.32.
TIAQSMLYLSNLKNSIA, QAETRED, QQYHRLPIM [En_HC]: 0.51, 1.16, 0.63, 0.44, 0.05, 0.87.
TISGLIGMPSRAHNSVA, NTSTRYQ, QQYHRLPLS [En_HC]: 1.89, 1.22, 1.04, 1.94, 1.05, 0.93.
HLSAMWGLESVKHNNVA, ENNTRED, QQYDRLPLS [En_Gen]: 1.39, 1.64, 1.45, 1.51, 1.17, 2.39.
KCSQNVLIMGRGKNNVA, EMTTREE, QQYDRLPLS [En_HC]: 0.21, 0.08, 0.30, -0.21, -0.07, 0.18.
TISGVMTQMQHSKNNVA, EVSTRLD, QQYFRLPLE [En_Gen]: 0.76, 0.48, 0.38, 0.51, 0.42, 0.74.
KVQLGLERYNGDYSAVA, GETQKGD, QQYFQLPLG [En_Gibbs]: 1.61, 0.95, 1.35, 0.88, 1.05, 1.08.
RIQDHMAVGTMSGSSIA, EEATWMD, QQYSRLPLA [En_Gibbs]: nd, 0.63, nd, nd, nd, nd.
KLSSSWLYEQRNVNSVA, QASQRLR, QQYHRLPLS [GP_Gibbs]: 0.42, 0.48, 0.37, 0.19, 0.73, 1.02.
ALSDWEWYGEENINRIA, DRSALEW, QQYGRLPLS [En_Gibbs]: 1.46, 0.80, 0.82, 0.88, 1.12, 1.13.

Top 4 of the variants detected in all replicates, tightest first:

CDR-L1	CDR-L2	CDR-L3	group	log10 Kd, replicates
KLMTSDLYESRMKNAVA	DASTRME	QQYHRLPLS	GP_Gibbs	-0.21, -0.26, -0.39, -0.42, -0.39, -0.22
KLGMTLNQLMHKKNNVA	DLVERAN	QQYFRLPLS	En_Gen	-0.04, 0.31, -0.28, 0.09, -0.10, -0.12
QLPNARPDGYLQKNNVA	EGTERSD	QQYMRLPLF	En_Gibbs	0.06, 0.04, -0.04, -0.08, -0.12, 0.18
KCSQNVLIMGRGKNNVA	EMTTREE	QQYDRLPLS	En_HC	0.21, 0.08, 0.30, -0.21, -0.07, 0.18

From the AlphaSeq antibody data of Li et al. 2023 (doi:10.1038/s41467-023-39022-2), copy in the FLAb collection.